# Patent EP2794556B1, “BIS-(ARYL/HETEROARYL)-METHYLENE COMPOUNDS, PHARMACEUTICAL COMPOSITIONS CONTAINING SAME AND THEIR USE FOR TREATING CANCER” (Gleason, James L., priority 2011, dated 2013)
# Key:
# Type in all cases: cell-based, human
# [1] = system: SCC4 cells; assay: MTS cell proliferation assay; settings: vitamin D resistant SCC4 cells, Figures 7c, 8 and 9
# Text: Dose-dependent effects of compounds on cell cycle progression was monitored using a CellTiter 96 Aqueous Non-Radioactive Cell Proliferation Assay Kit (Promega). The assay composed of solutions of a novel tetrazolium compound (MTS) and an electron coupling reagent (phenazine methosulfate; PMS). MTS is reduced by metabolically active cells into a soluble formazan product that absorbs at 490nm. The quantity of formazan product absorbing at 490nm is directly proportional to the number of living cells.
# This antiproliferative effect again results from the combination of VDR agonism and HDACi activity of the molecules, as molecules lacking strong VDR agonism or HDACi activity (e.g. 1,25D) are ineffective.
# [2] = system: total intracellular HDAC activity in SCC25 cells; assay: HDACi activity with fluorogenic substrate in live cells; settings: increasing concentration, Fig. 2a, b
# Description: (§1) Compounds were also tested along with 1,25D for HDACi activity using a fluorogenic substrate in vivo in SCC25 and SCC4 cells (Figs. 2a, b). This assay measures the inhibition of total intracellular HDAC activity and determines the capacity of compounds to inhibit HDACs in the form of their naturally occurring complexes.
# [3] = system: total intracellular HDAC activity in SCC4 cells; assay: as above; settings: increasing concentration, Fig. 2a, b
# Description: as §1
smiles,measurement,setting,value
"C=C1/C(=C\C=C2/CCC[C@]3(C)[C@@H]([C@H](C)CCCC(C)(C)O)CC[C@@H]23)C[C@@H](O)C[C@@H]1O [1,25D, 1,25-dihydroxyvitamin D, reference compound]",antiproliferative potency,[1],ineffective
same,"HDACi activity, substrate deacetylation",[2],no effect
same,"HDACi activity, substrate deacetylation",[3],no effect
